A short description of the data set: Stability to mouse liver microsomes.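 Note: analyte quantified by LC-MS/MS as ratio to internal standard peak area, mean of duplicates, 60 min value expressed relative to the 0 min level (100%).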 To be noted: 1 μM, 37° C., 60 min, CD-1 mouse liver microsomes. Format: in vitro ADME.

The values that follow come from patent publication US9198913B2, “Nitroimidazooxazines and their uses in anti-tubercular therapy” (priority 2009, dated 2015).

Molecules are shown by their SMILES.

As to `O=[N+]([O-])c1cn2c(n1)OC[C@@H](OCc1ccc(C#Cc3ccc(OC(F)(F)F)cc3)cn1)C2` [Compound 18, (6S)-2-Nitro-6-[(5-{[4-(trifluoromethoxy)phenyl]ethynyl}-2-pyridinyl)methoxy]-6,7-dihydro-5H-imidazo[2,1-b][1,3]oxazine], the “Microsomes (% remaining, 1 h) Mouse” value is recorded as 97%.
